Assays:
[1] = target: MNK2a (Homo sapiens, UniProt Q9HBH9); experiment: MNK2a in vitro kinase assay (assay 1), ADP-Glo; format: biochemical; details: read-out: MNK2 IC50, preactivated GST-MNK2a, 20 μM ATP
Experimental: A. MNK2a In Vitro Kinase Assay (Assay 1)
ASSAY SETUP: The inhibition of kinase activity of MNK2a was assessed using preactivated GST-MNK2a. The white, 384-well OptiPlate F plates were purchased from Perkin Elmer. The ADP-Glo Kinase Assay (including ultra pure ATP) was purchased from Promega (V9103). Activated MNK2a was obtained as described in WO2011/104340. The unlabeled eIF4E peptide (NH2-[…]—CONH2) (SEQ ID NO: 1), differing from Seq. ID No. 5 of WO 2011/104340 by the C-terminal —CONH2 group, was purchased from Thermo Fisher Scientific. All other materials were of highest grade commercially available. Compounds are tested in either serial dilutions or single dose concentrations. The compound stock solutions are 10 mM in 100% DMSO The serial compound dilutions are prepared in 100% DMSO followed by 1:27.3 intermediate dilution in assay buffer. The final DMSO concentration in assay will be <3%. In the 384-well plates 3 μl of test compound from the intermediate dilution is mixed with 4 μl of the activated MNK2 enzyme (final concentration of 10 nM) and 4 μl of the peptide (final concentration of 25 μM)/ultra pure ATP (final concentration of 20 μM), all dissolved in assay buffer. This step is followed by an incubation time of 90 min, then 10 μl of ADP Glo reagent are added, followed by 40 min of incubation. Then 20 μl of kinase detection reagent are admixed. The plates are sealed and after an incubation period of 30 min, the luminescence signal is measured in an Envision reader to determine the amount of produced ADP. All incubation steps are performed at room temperature. The assay buffer consists of 20 mM HEPES, 2 mM DTT, 0.01% BSA, 20 mM MgCl2 and 0.1% Pluronic F-127.
Each assay microtiter plate contains wells with vehicle controls instead of compound (1% DMSO in water) as reference for the high signal (100% CTL, high signal), and wells containing a potent MNK2 inhibitor (final 20 μM, 1% DMSO) as reference for low signal (0% CTL, low signal).
The luminescent signal generated is proportional to the ADP concentration produced and is correlated with activated MNK2 activity. The analysis of the data is performed by the calculation of the percentage of ATP consumption of activated MNK2 in the presence of the test compound compared to the consumption of ATP in the presence of activated MNK2 without compound. (RLU(sample)−RLU(low control))*100/(RLU(high value)−RLU(low control)) [RLU=relative luminescence units]
An inhibitor of the MNK2 enzyme will give values between 100% CTL (no inhibition) and 0% CTL (complete inhibition). Values of more than 100% CTL are normally related to compound/sample specific physico-chemical properties (e.g. solubility, light absorbance, fluorescence).
IC50 values based on dose response curves are calculated with the AssayExplorer software.

The chains behind the UniProt entries cited, without tags or fusion partners. Residues count along the entry.
UniProt Q9HBH9, whole entry: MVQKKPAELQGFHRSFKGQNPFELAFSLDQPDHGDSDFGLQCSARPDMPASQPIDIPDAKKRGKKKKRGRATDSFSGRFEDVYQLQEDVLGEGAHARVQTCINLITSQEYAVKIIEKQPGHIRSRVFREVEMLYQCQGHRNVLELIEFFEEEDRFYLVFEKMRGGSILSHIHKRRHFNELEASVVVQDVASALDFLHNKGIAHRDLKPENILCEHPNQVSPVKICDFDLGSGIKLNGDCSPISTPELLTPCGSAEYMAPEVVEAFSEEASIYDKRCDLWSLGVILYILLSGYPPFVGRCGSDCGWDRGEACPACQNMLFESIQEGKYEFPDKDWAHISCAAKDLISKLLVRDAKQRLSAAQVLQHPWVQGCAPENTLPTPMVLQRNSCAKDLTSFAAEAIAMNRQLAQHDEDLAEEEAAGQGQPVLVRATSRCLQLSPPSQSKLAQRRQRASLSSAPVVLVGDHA
UniProt Q9BUB5, 1-424 isoform 2: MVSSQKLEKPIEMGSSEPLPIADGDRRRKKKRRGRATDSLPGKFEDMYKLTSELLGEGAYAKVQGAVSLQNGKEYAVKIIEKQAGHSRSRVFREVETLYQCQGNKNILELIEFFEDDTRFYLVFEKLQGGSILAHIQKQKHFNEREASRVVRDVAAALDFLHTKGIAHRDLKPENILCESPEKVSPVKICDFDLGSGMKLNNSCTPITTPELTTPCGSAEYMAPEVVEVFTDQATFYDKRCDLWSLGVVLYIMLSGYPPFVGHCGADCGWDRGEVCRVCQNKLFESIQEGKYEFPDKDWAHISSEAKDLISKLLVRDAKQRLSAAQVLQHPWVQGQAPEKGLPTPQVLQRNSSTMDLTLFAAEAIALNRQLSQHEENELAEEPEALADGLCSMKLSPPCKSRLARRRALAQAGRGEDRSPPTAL

[2] = target: MNK1a (Homo sapiens, UniProt Q9BUB5); experiment: MNK1 in vitro kinase assay (assay 2), Z'-LYTE; details: compound concentration of 1 μM
Text: B. MNK1 In Vitro Kinase Assay (Assay 2)
MNK1 Data can be obtained from the MNK1 Z′-LYTE® assay. The MNK1 Z′-LYTE® screening protocol and assay conditions are also described on www.invitrogen.com.
The assay is described as follows:
The Z′-LYTE® biochemical assay employs a fluorescence-based, coupled-enzyme format and is based on the differential sensitivity of phosphorylated and non-phosphorylated peptides to proteolytic cleavage. The peptide substrate is labeled with two fluorophores—one at each end—that make up a FRET pair.
In the primary reaction, the kinase transfers the gamma-phosphate of ATP to a single tyrosine, serine or threonine residue in a synthetic FRET-peptide. In the secondary reaction, a site-specific protease recognizes and cleaves non-phosphorylated FRET-peptides. Phosphorylation of FRET-peptides suppresses cleavage by the Development Reagent. Cleavage disrupts FRET between the donor (i.e., coumarin) and acceptor (i.e., fluorescein) fluorophores on the FRET-peptide, whereas uncleaved, phosphorylated FRET-peptides maintain FRET. A ratiometric method, which calculates the ratio (the Emission Ratio) of donor emission to acceptor emission after excitation of the donor fluorophore at 400 nm, is used to quantitate reaction progress, as shown in the equation below. Emission Ratio=Coumarin Emission(445 nm)/Fluorescein Emission(520 nm)
ASSAY SETUP: The inhibition of kinase activity of MNK1a was assessed using pre-activated GST-MNK1a. The 2×MKNK1 (MNK1) mixture is prepared in 50 mM HEPES pH 7.5, 0.01% BRIJ-35, 10 mM MgCl2, 4 mM MnCl2, 1 mM EGTA, 2 mM DTT. […]
9. Read on fluorescence plate reader and analyze the data […]
Correction for Background Fluorescence: FSample−FITCFl Ctl
Emission Ratio (using values corrected for background fluorescence):Coumarin […]
% Phosphorylation (% Phos): 1−((Emission Ratio×F100%)−C100%)/((C0%−C100%)+[Emission Ratio×(F100%−F0%)])*100 % Inhibition: 1−(% PhosSample/% Phos0% Inhibition Ctl)*100 FI=Fluorescence Intensity C100%=Average Coumarin emission signal of the 100% Phos. […]

Row | Compound | IC50 [1] [nM] | % Inhibition of MNK1 [2] [%]
1 | Cc1cc(N=S(C)(C)=O)cc2ncnc(Nc3ccc(F)cc3OC3CCC(F)(F)CC3)c12 | 14 | 71
2 | Cc1cc(N=S2(=O)CCNCC2)cc2ncnc(Nc3ccc(F)cc3O[C@@H]3CCNC3)c12 | 6 | 95
3 | COc1cc(N=S2(=O)CCCC2)cc2ncnc(Nc3ccc(F)cc3O[C@@H]3CO[C@@H]4CCO[C@@H]43)c12 | 1 | –
4 | CO[C@@H]1CO[C@H]2[C@@H]1OC[C@H]2Oc1cc(F)ccc1Nc1ncnc2cc(N=S3(=O)CCCC3)cc(F)c12 | 2 | –
5 | COc1cc(N=S(C)(C)=O)cc2ncnc(Nc3ccc(F)cc3O[C@H]3CC[C@H](O)CC3)c12 | 4 | 97

Reference: patent US8901138B2, “Sulfoximine substituted quinazolines for pharmaceutical compositions” (Boehringer Ingelheim International GmbH, priority 2012, dated 2014)
